Assay results: USRE47475E1, “Selective agents for pain suppression” (WiSys Technology Foundation, Inc., priority 2002, dated 2019)

Key:
Assay in all cases: competitive binding assay with [3H]flunitrazepam
[1] = target: GABAA/α4 (α4β3γ2 GABAA receptor) (Homo sapiens, UniProt P18507+P48169); settings: read-out: Binding Affinity at GABAA/α4; Table 3
[2] = target: GABAA/α6 (α6β3γ2 GABAA receptor) (Homo sapiens, UniProt P18507+Q16445); settings: read-out: Binding Affinity at GABAA/α6; Table 3
[3] = target: GABAA/α1 (α1β3γ2 GABAA receptor) (Homo sapiens, UniProt P14867+P18507); settings: read-out: Binding Affinity at GABAA/α1; Table 3
[4] = target: GABAA/α2 (α2β3γ2 GABAA receptor) (Homo sapiens, UniProt P18507+P47869); settings: read-out: Binding Affinity at GABAA/α2; Table 3
[5] = target: GABAA/α3 (α3β3γ2 GABAA receptor) (Homo sapiens, UniProt P18507+P34903); settings: read-out: Binding Affinity at GABAA/α3; Table 3
[6] = target: GABAA/α5 (α5β3γ2 GABAA receptor) (Homo sapiens, UniProt P18507+P31644); settings: read-out: Binding Affinity at GABAA/α5; Table 3

Compound | Ki [1] [nM] | Ki [2] [nM] | Ki [3] [nM] | Ki [4] [nM] | Ki [5] [nM] | Ki [6] [nM]
C#Cc1ccc2c(c1)C(c1ccccc1)=NCC1=N/C(=C\N3CCN(C)CC3)C(=O)N12 | > 5000 | > 5000 |  |  |  | 
C#Cc1ccc2c(c1)C(c1ccccc1)=NCc1c(-c3nc(C(C)C)no3)ncn1-2 |  | > 5000 | > 5000 | 135 | 1030 | 152
